This assay deals with tumor-associated glycoprotein TAG-72 (human). Briefly: TAG-72-coated plate assay with 125I goat anti-human IgG probe, Scatchard analysis; mean of 7 analyses.

Regarding “chimeric CC49 antibody MuVH/MuVK (ATCC HB 9884)”, the Ka came out at 7.62e+09 M⁻¹.

The values are drawn from US20030004318A1.
